This is an account of results in patent US9328124B2, “BACE inhibitors” (Eli Lilly and Company, priority 2012, dated 2016).

Amino acid sequences for entries named in this document (tags omitted). Residues count along the entry.
UniProt P56817, 22-460: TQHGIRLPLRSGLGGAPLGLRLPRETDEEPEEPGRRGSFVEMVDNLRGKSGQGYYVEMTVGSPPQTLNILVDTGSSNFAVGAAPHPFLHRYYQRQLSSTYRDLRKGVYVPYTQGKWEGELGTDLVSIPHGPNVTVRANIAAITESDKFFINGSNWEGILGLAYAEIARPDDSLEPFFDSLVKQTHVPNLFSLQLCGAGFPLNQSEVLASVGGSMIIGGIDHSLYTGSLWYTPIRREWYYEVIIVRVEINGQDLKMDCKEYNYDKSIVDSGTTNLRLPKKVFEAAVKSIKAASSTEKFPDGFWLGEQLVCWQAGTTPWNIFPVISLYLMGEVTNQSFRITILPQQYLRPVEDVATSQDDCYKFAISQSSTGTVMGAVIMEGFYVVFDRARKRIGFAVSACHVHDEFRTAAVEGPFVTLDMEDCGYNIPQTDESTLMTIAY

This assay deals with human BACE1(1-460):Fc (Homo sapiens (Human), UniProt P56817). Put plainly: BACE1 FRET assay. The settings on record: purified recombinant human BACE1, FRET; Mean ± SEM. The class given is biochemical. As to the method:
For in vitro enzymatic and cellular assays, test compounds are prepared in DMSO to make up a 10 mM stock solution. The stock solution is serially diluted in DMSO to obtain a ten-point dilution curve with final compound concentrations ranging from […] to 1 nM in a 96-well round-bottom plate before conducting the in vitro enzymatic and whole cell assays.
Human BACE1 (accession number: AF190725) is cloned from total brain cDNA by room temperature-PCR. The nucleotide sequences corresponding to amino acid sequences #1 to 460 are inserted into the cDNA encoding human IgG1(Fc) polypeptide (Vassar et al. 1999). This fusion protein of BACE1(1-460) and human Fc, named huBACE1:Fc, is constructed into the pJB02 vector. Human BACE1(1-460):Fc (huBACE1:Fc) is transiently expressed in HEK293 cells. 250 μg cDNA of each construct is mixed with Fugene 6 and added to 1 liter HEK293 cells. Four days after the transfection, conditioned media are harvested for purification. huBACE1:Fc is purified by Protein A chromatography. The enzyme is stored at −80° C. in small aliquots.
Serial dilutions of test compounds are prepared as described above. […] The RFU of the mixture at time 0 is recorded at excitation wavelength 355 nm and emission wavelength 460 nm, after brief mixing on a plate shaker. […] The RFU at the end of incubation is recorded with the same excitation and emission settings used at time 0. […]

Where a name gives a salt, the structure may show the parent alone.

With `CC(C)(O)c1nc(N2C[C@H]3CSC(N)=N[C@@]3(c3ccc(F)cn3)C2)ncc1F` [Example 12, 2-[2-[(4aR,7aR)-2-Amino-7a-(5-fluoro-2-pyridyl)-4,4a,5,7-tetrahydropyrrolo[3,4-d][1,3]thiazin-6-yl]-5-fluoro-pyrimidin-4-yl]propan-2-ol hydrochloride], the IC50 is 73.4 nM.

In general, IC50 refers to the midpoint of a concentration-inhibition curve.
